For one test, the system named is MCh response. Kind of test: Rat Einthoven assay (bronchoprotection). Conditions: inhalation, 100 μg dose, measured at 24 hours.
Test [1] concerns the target hM3 muscarinic receptor subtype (Homo sapiens, UniProt P20309). Kind of test: Radioligand binding assay, [3H]-NMS displacement. Conditions: read-out: Ki for the M3 muscarinic receptor subtype (hM3 Ki); CHO cell membranes, [3H]-NMS at 1 nM, measured at 6 hours, 37° C.

Protein sequences, listed by entry. Tags and fused reporters are not part of them.
UniProt P20309, whole entry, looked up: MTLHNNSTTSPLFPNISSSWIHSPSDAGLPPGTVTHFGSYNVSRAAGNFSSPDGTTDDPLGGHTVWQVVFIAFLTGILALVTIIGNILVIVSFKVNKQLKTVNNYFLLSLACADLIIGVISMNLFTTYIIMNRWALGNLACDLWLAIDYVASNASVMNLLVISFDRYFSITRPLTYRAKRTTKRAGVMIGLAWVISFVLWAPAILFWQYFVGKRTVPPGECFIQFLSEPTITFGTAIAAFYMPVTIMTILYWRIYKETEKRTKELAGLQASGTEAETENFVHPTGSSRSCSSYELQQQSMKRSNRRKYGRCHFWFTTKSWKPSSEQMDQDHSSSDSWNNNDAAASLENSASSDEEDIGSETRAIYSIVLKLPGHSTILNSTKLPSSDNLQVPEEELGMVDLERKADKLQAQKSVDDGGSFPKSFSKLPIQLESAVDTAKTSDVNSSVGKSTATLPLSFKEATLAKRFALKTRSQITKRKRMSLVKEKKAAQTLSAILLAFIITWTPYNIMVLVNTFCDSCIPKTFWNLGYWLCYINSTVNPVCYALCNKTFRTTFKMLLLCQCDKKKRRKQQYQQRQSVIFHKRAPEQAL

The values below come from patent US9216971B2 (priority 2007, dated 2015).

As a reminder, the Ki is a dissociation constant, usually derived from enzyme kinetics or from competition with a known ligand. For `CN(CCc1ccc(O)cc1)C1CCN(C(=O)C(O)(c2ccccc2)C2CCCC2)CC1` (stereo not drawn), the “% inhibition of MCh response relative to control animals” value in the test with MCh response is −18%. Moreover, the Ki in test [1] came to 0.38 nM.

`O=C(N1CCC(NCCc2ccc(O)cc2)CC1)C(O)(c1ccccc1)C1CCCC1` (stereo not drawn): the “% inhibition of MCh response relative to control animals” value in the test on MCh response was −6%. For the same molecule, the Ki in test [1] was 0.42 nM.

`C[N+](C)(CCc1ccc(O)cc1)C1CCN(C(=O)C(O)(c2ccccc2)C2CCCC2)CC1` (stereo not drawn): in the test with MCh response, the “% inhibition of MCh response relative to control animals” value is 76%. Moreover, in test [1], the inhibition constant Ki was determined as 0.74 nM.
